Here are results for one compound from PubChem BioAssay AID1907 (The Scripps Research Institute Molecular Screening Center, 2009).

This is a selection; strong and weak results do not stand in their true shares. Active and inactive are the calls of the source. Rule as the data show it: active = inhibition above about 22%; inactive = the rest.

By inhibition is commonly meant the drop in the measured response relative to a control, in per cent.

This experiment is described as follows: cytotoxic compounds in IEC-6 epithelial cells, confirmation, cytotoxicity control, cell-based, luminescence (AID 1907).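 Also: 0% = vehicle and 100% = reference cytotoxic drug.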 The note with it: IEC-6 rat intestinal epithelial viability, at 5 µM, stronger effect = higher value.
For the compound `C[N+]1=C2C=CC=CC=C2SC12C([N+](=O)[O-])=CC([N+](=O)[O-])=C[C-]2[N+](=O)[O-]` (stereo unspecified), the inhibition was active: 42.2%.
